Sequences of proteins named here, by UniProt entry; tags and fusion partners are left off. Residues count along the entry.
UniProt P13726, 33-251: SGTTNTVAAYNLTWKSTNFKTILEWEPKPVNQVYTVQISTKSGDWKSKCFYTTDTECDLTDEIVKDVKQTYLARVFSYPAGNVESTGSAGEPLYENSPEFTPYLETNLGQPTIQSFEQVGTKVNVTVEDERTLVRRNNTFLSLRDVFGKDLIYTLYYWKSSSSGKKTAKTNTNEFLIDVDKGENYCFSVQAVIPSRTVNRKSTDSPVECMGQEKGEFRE

In article PMC7567794 (Scientific Reports, 2020):

Molecular target: T1, tissue factor (S33 to E251) (Homo sapiens, UniProt P13726)
T1 construct: tissue factor (TF), residues S33 to E251; the antigen of the antibody D3h44 in PDB 1JPS; The tag was removed with Ulp1; tag-free TF was used; Antigen residues named in the text (S202, K169, P194, I152) follow the numbering of PDB 1JPS, not that of the construct limits; also called TF; antigen; source: E. coli BL21 (DE3), purified (Ni-NTA, SEC); not shown: His6, N-terminal, cleaved; SUMO, …
Assay: SPR; Biacore 8K; TF immobilised on a CM5 chip by amine coupling (450-750 response units); Fab as analyte; single-cycle kinetics, association 120 s, dissociation 1800 s, no regeneration; PBS with 0.005% Tween-20; three measurements
Details: both partners purified

B1: anti-tissue factor antibody D3h44 Fab, wild-type (Fab, V domains shown)
VH: EVQLVESGGGLVQPGGSLRLSCAASGFNIKEYYMHWVRQAPGKGLEWVGLIDPEQGNTIYDPKFQDRATISADNSKNTAYLQMNSLRAEDTAVYYCARDTAAYFDYWGQGTLVTVSS
VL: DIQMTQSPSSLSASVGDRVTITCRASRDIKSYLNWYQQKPGKAPKVLIYYATSLAEGVPSRFSGSGSGTDYTLTISSLQPEDFATYYCLQHGESPWTFGQGTKVEIK
notes: heavy chain of the D3h44 Fab; light chain of the D3h44 Fab; also called 1JPS WT; 1JPS Fab; source: ExpiCHO, purified (Ni-NTA, SEC)
Question: With B1 as the binder, how does the Kd read?
Answer: 45 pM

Question: And the koff?
Answer: 6.2e-05 s⁻¹

Question: And the kon?
Answer: 1.4e+06 M⁻¹ s⁻¹
